Reference: ChEMBL document CHEMBL4837242, “Discovery of Irbesartan Derivatives as BLT2 Agonists by Virtual Screening” (ACS Med Chem Lett, 2021)
Activity calls are given as the source filed them. The calls are words filed in the database; no cut-off is given here.

Sequences of proteins named here, by UniProt entry; tags and fusion partners are left off. A change or cut given only in a name is not applied to a line headed by its entry.
UniProt Q15722: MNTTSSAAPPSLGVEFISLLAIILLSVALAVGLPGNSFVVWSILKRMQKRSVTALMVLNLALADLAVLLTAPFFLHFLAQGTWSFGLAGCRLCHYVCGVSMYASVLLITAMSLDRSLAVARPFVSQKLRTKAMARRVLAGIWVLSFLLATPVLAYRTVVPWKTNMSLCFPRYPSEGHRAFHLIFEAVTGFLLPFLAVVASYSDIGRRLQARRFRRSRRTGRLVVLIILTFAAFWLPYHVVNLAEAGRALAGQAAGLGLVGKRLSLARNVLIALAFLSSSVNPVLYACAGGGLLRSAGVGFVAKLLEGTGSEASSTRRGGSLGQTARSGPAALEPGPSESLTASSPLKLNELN

These molecules were tested against Leukotriene B4 receptor 1 (Homo sapiens) (UniProt Q15722) (assay: Agonist activity at human BLT1 overexpressed in CHO-K1 cells assessed as accumulation of inositol monophosphate measured after 90 mins by HTRF assay).
Assay type: functional, cell-based
In short: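 IP-One accumulation assay run in agonist mode, read-out inositol monophosphate as a measure of Gq activation; LTB₄ as reference agonist and positive control. EC₅₀ determinations done at least twice (n = 2).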
For `CCCCC1NC(C)(C)C(=O)N1Cc1ccc(-c2ccccc2-c2nnn[nH]2)cc1` (stereo not drawn), the Activity was “inactive”.
In the case of `CCCCC1=NC2(CCCC2)C(=O)N1Cc1ccc(-c2ccccc2C(=O)O)cc1`, the Activity is reported as “inactive”.
With `O=C(O)c1ccccc1-c1ccc(CN2C(=O)C3(CCCC3)N=C2Cc2ccccc2)cc1` the Activity was “inactive”.
